Measured values published in patent publication US20100076005A1, “ISOCARBOSTYRIL ALKALOID DERIVATIVES HAVING ANTI-PROLIFERATIVE AND ANTI-MIGRATORY ACTIVITIES” (Unibioscreen SA, priority 2006, published 2010).

Assay: in vivo
Conditions: mouse, maximum tolerated dose, single intravenous dose, healthy mice, survival and weights recorded up to 14 days
Experimental: The maximum tolerated dose (herein after MTD) is defined as the maximum amount of a given drug which can be administered acutely (i.e. in one intraperitoneal, intravenous, subcutaneous or oral single dose) to healthy animals, i.e. animals not grafted with tumors. In this assay, compounds were administered intravenously. The survival times and weights of the animals were recorded up to 14 days post injection. Five different doses of each compound were used for the determination of the MTD index. Each experimental group comprised 3 mice for the determination of the MTD (expressed in mg/kg).

O=C1N[C@@H]2C(=C[C@H](O)[C@@H](O)[C@H]2O)c2cc3c(c(O)c21)OCO3 [narciclasine, reference compound]
MTD at 14 days: 10 mg/kg
